GIV Gai3 FP = blocks GIV peptide binding to rat Galpha-i3; P08753; Galpha-i3/FITC-GIV peptide fluorescence polarization, 90 min; stronger effect = lower value; scaled: aluminum fluoride 0%, vehicle 100%; percent of control (FP), % (no concentration beside the values); 210,000 tested, 0.42% active; AID 1224905;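 active = replicate mean at 85% of control or lower, very high polarization wells dropped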;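 also: wells of about 15 µL received 100 nL stock; the first replicate is given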
HCMV UL50-53 inh = inhibitors of HCMV UL50-UL53 nuclear egress complex interaction | HTRF UL50-UL53 interaction, normalized percent inhibition | inhibition, % (test concentration not listed) | hit rate 0.15% among 190,000; in the data active means inhibition above about 27%, passing the limit was not always enough
GIV Gai FP conf = confirmation of inhibitors of GIV binding to rat Galpha-i3; AID 1259350; fluorescence polarization, mP at 100 µM; FITC-GIV peptide binding to Galphai3, fluorescence polarization; active compounds read low; shares compounds with GIV Gai3 FP; hit rate 38% among 580;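 active means inhibition score of 15 or more, meaning 100 minus mean polarization as percent of control over three replicates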;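 further: lower mP means peptide displaced from Galphai3 so more inhibition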
GIV Gai AS conf = confirmation of inhibitors of GIV binding to human Galpha-i3; hit rate 39% among 580; AlphaScreen counts at 100 µM; AlphaScreen Galphai3-GIV binding, purified proteins, 90 min; active compounds read low; shares compounds with GIV Gai3 FP;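 active means inhibition score at or above a set limit, where the score is 100 minus the three-replicate mean percent of control signal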
An asterisk follows results filed as active; . = no result given. In the library only some 0.43% were active in any assay of this set; here they are far more common.

(1) Cc1cccn2c(=O)cc(COc3cccc(NC(=O)COc4ccccc4)c3)nc12
(2) Cc1cccn2c(=O)cc(COc3cccc(NC(=O)COc4ccc(F)cc4)c3)nc12
(3) CCc1cc2c(cc(C(=O)NCc3ccccc3)n2C)s1
(4) COc1cc(C2C(C(=O)N3CCCCC3)=C(C)NC3=C2C(=O)CC(C)(C)C3)ccc1OCc1ccccc1 (stereo not drawn)
(5) Cc1c(C#N)c(N)nc(SCC(=O)c2ccc(Cl)cc2)c1C#N
(6) O=C(O)C1Nc2c(I)cccc2C2C=CCC12 (stereo not drawn)
(7) CC(=O)Nc1ccc2c(c1)C1C=CCC1C(C(=O)O)N2 (stereo not drawn)
(8) O=c1c(=Nc2ccccc2O)c(=O)c2ccccc12
(9) O=c1c(=N\O)/c(=N/O)c(=O)c2ccccc12
(10) O=C(NCC1CCCO1)c1ccc2c(=O)n(Cc3ccco3)c(SCc3ccc(F)cc3Cl)nc2c1 (stereo not drawn)

entry no.	1	2	3	4	5	6	7	8	9	10
GIV Gai3 FP	95	99	103	95	96	43*	188	.	59*	100
GIV Gai AS conf	34512	.	.	.	.	1672*	.	.	4729*	.
HCMV UL50-53 inh	.	.	.	.	-8	14	-58	37	97*	.
GIV Gai FP conf	79	.	.	.	.	36*	.	.	64*	.

(11) Cc1nc2c(c(C)nn2C(C)(C)C)c(C)c1CCC(=O)N1CCC(N2CCCCC2)CC1
(12) O=C(O)CSc1nnc2n1-c1ccc(Cl)cc1NN2
(13) Clc1ccc2c(c1)NNc1nncn1-2
(14) c1ccc2c(c1)CCN2c1c2c(nc3ncnn13)CCC2
(15) Cc1cc(N2CCc3ccccc32)n2ncnc2n1
(16) CCOc1ccc2c(c1)C(C)CC(C)(C)N2C(=O)Nc1ccc(Cl)cc1 (stereo not drawn)
(17) CC1(C)Cc2ccccc2C2=NNC(=O)C2=N1
(18) CC1(C)Cc2ccccc2C(C2=C(O)CCCC2=O)=N1
(19) CCN(CC(=O)Nc1ccc2c(c1)OCCO2)C(=O)C1CC1
(20) CCCN(CCC)S(=O)(=O)c1ccc(C(=O)Nc2ccc3c4c(cccc24)C(=O)N3CC)cc1

entry no.	11	12	13	14	15	16	17	18	19	20
GIV Gai3 FP	99	47*	101	91	107	99	76*	105	.	130
GIV Gai AS conf	.	6321*	.	25963	.	.	30303	.	.	.
HCMV UL50-53 inh	-31	-265	-294	-10	0	.	-29	.	-40	.
GIV Gai FP conf	.	39*	.	78	.	.	54*	.	.	.

Laid out differently: results already given
[19] CCN(CC(=O)Nc1ccc2c(c1)OCCO2)C(=O)C1CC1
  GIV Gai3 FP: .
  GIV Gai AS conf: .
  HCMV UL50-53 inh: -40
  GIV Gai FP conf: .

[20] CCCN(CCC)S(=O)(=O)c1ccc(C(=O)Nc2ccc3c4c(cccc24)C(=O)N3CC)cc1
  GIV Gai3 FP: 130
  GIV Gai AS conf: .
  HCMV UL50-53 inh: .
  GIV Gai FP conf: .

Other entries follow.
(21) C=CCN(CC=C)S(=O)(=O)c1ccc(C(=O)Nc2ccc3c4c(cccc24)C(=O)N3CC)cc1
(22) O=c1sc2ccccc2n1Cc1ccccc1
(23) O=c1sc2ccccc2n1Cc1nnc(-c2ccccc2)o1
(24) COC(=O)CSC1=C(C#N)C(c2cccc(Cl)c2Cl)C2=C(CCCC2=O)N1 (stereo not drawn)
(25) O=C(CSc1nc(-c2ccccc2)cs1)N1CCOCC1
(26) O=C(CSc1nc(-c2ccccc2)cs1)N1CCN(S(=O)(=O)c2ccccc2)CC1
(27) CN(C)c1ccc(-c2nc3cnccn3c2Nc2cccc(C(=O)O)c2)cc1
(28) CCN(CC)S(=O)(=O)c1ccc(N2CC(C(=O)Nc3nc4ccccc4s3)CC2=O)cc1 (stereo not drawn)
(29) CCOc1ccccc1N(CC)C(=O)Cn1ncc2c(=O)oc3ccccc3c21
(30) CCN(C(=O)Cn1ncc2c(=O)oc3ccccc3c21)c1cc(OC)ccc1OC

entry no.	21	22	23	24	25	26	27	28	29	30
GIV Gai3 FP	78*	.	92	104	90	.	107	.	100	86
GIV Gai AS conf	46376	.	33349	.	49138	.	.	.	.	47620
HCMV UL50-53 inh	.	4	19	-43	-2	-24	-51	0	-8	4
GIV Gai FP conf	64	.	74	.	73	.	.	.	.	65
